According to US20140065611A1, “MODIFICATION OF NEURO[…] OF MERCURY BY A GENETIC PO[…] COPROPOR[…] IN CHILDREN” (University of Washington through its Center for …, priority 2012, published 2014):
Read-outs that look alike come from different tables or passages of the source. Marks after values point to notes of the source that are not given here.

Experiments:
children [1] = settings: for Beta (SE), Hg^0 dose-response, RAVALT TR 5 / rpart, Hg^0 dose-response, RAVALT TR 5: girls, acute Hg^0 (HgU Year 2)
children [2] = settings: boys, Year 7, maximum Hg^0
children [3] = tested on: children
children [4] = settings: for Beta (SE), Hg^0 dose-response, WRAVMA - Pegs Dominant / rpart, Hg^0 dose-response, WRAVMA - Pegs Dominant: Year 7, maximum Hg^0
children [5] = settings: boys
children [6] = settings: boys; remark: listed apart in the source
children [7] = settings: boys; remark: listed apart in the source
children [8] = settings: boys; remark: listed apart in the source
children [9] = settings: boys; remark: listed apart in the source
children [10] = settings: boys; remark: listed apart in the source
children [11] = settings: girls, Year 2, p≦0.02
children [12] = tested on: children; remark: listed apart in the source
[13] = boys, CPOX4 Het or Mut, Year 7, maximum Hg^0
[14] = boys, CPOX WT, Year 7, maximum Hg^0
[15] = boys, CPOX4 Het or Mut, Year 7, cumulative Hg^0
[16] = boys, CPOX WT, Year 7, cumulative Hg^0
[17] = girls, CPOX4 Het or Mut, acute Hg^0 (HgU Year 2)
[18] = girls, CPOX WT, acute Hg^0 (HgU Year 2)
[19] = CPOX4 Het or Mut, Year 7, cumulative Hg^0
[20] = CPOX4 Het or Mut, Year 7, maximum Hg^0
[21] = CPOX WT, Year 7, cumulative Hg^0
[22] = CPOX4 Het or Mut, acute Hg^0 (HgU Year 2)
[23] = CPOX WT, acute Hg^0 (HgU Year 2)

elemental mercury [Hg^0]
rpart, Hg^0 dose-response, RAVALT TR5 - List A (children [1]; [13]): −.36 (.03)*
Beta (SE), Hg^0 dose-response, RAVALT TR5 - List A (children [1]; [14]): .51 (.43)
rpart, Hg^0 dose-response, RAVALT TR5 - List A (children [1]; [14]): .13 (.24)
Beta (SE), Hg^0 dose-response, RAVALT TR 5 (children [1]; CPOX4 Het or Mut): −1.34 (.47)*
rpart, Hg^0 dose-response, RAVALT TR 5 (children [1]; CPOX4 Het or Mut): −.38 (.006)*
Beta (SE), Hg^0 dose-response, RAVALT TR 5 (children [1]; CPOX WT): .28 (.43)
rpart, Hg^0 dose-response, RAVALT TR 5 (children [1]; CPOX WT): .07 (.51)
Beta (SE), Hg^0 dose-response, RAVALT TR7 - A/post B (children [2]; CPOX4 Het or Mut): −2.24 (.82)*
rpart, Hg^0 dose-response, RAVALT TR7 - A/post B (children [2]; CPOX4 Het or Mut): −.42 (.01)*
Beta (SE), Hg^0 dose-response, RAVALT TR7 - A/post B (children [2]; CPOX WT): .52 (.52)
rpart, Hg^0 dose-response, RAVALT TR7 - A/post B (children [2]; CPOX WT): .11 (.33)
Beta (SE), Hg^0 dose-response, RAVALT TR8 - List A 20′ (children [3]; [15]): −2.01 (.92)*
rpart, Hg^0 dose-response, RAVALT TR8 - List A 20′ (children [3]; [15]): −.35 (.04)*
Beta (SE), Hg^0 dose-response, RAVALT TR8 - List A 20′ (children [3]; [13]): −2.14 (.83)*
rpart, Hg^0 dose-response, RAVALT TR8 - List A 20′ (children [3]; [13]): −.40 (.01)*
Beta (SE), Hg^0 dose-response, RAVALT TR8 - List A 20′ (children [3]; [16]): .32 (.60)
rpart, Hg^0 dose-response, RAVALT TR8 - List A 20′ (children [3]; [16]): .06 (.60)
Beta (SE), Hg^0 dose-response, RAVALT TR8 - List A 20′ (children [3]; [14]): 84 (.58)
rpart, Hg^0 dose-response, RAVALT TR8 - List A 20′ (children [3]; [14]): .16 (.15)
Beta (SE), Hg^0 dose-response, RAVALT TR8 - List A 20′ (children [3]; [17]): −1.69 (.55)*
rpart, Hg^0 dose-response, RAVALT TR8 - List A 20′ (children [3]; [17]): −.40 (.003)*
Beta (SE), Hg^0 dose-response, RAVALT TR8 - List A 20′ (children [3]; [18]): .34 (.45)
rpart, Hg^0 dose-response, RAVALT TR8 - List A 20′ (children [3]; [18]): .08 (.46)
Beta (SE), Hg^0 dose-response, WRAVMA - Pegs Dominant (children [4]; boys, CPOX4 Het or Mut): −7.16 (2.90)*
rpart, Hg^0 dose-response, WRAVMA - Pegs Dominant (children [4]; boys, CPOX4 Het or Mut): −.39 (.02)*
Beta (SE), Hg^0 dose-response, WRAVMA - Pegs Dominant (children [4]; boys, CPOX WT): −.55 (1.58)
rpart, Hg^0 dose-response, WRAVMA - Pegs Dominant (children [4]; boys, CPOX WT): −.04 (.73)
Beta (SE), main effect Hg (ln), WRAVMA - Pegs Dominant (children [4]; boys, Year 7, cumulative Hg): .41 (1.49)
rpart, main effect Hg (ln), WRAVMA - Pegs Dominant (children [4]; boys, Year 7, cumulative Hg): .03 (.27)
direction of significant main effect of acute Hg^0 exposure, Peg test for the dominant hand (children [4]; girls, Year 2, p≦0.03): improved direction
Beta (SE), Hg^0 dose-response, WRAVMA - Pegs Non Dom (children [5]; [19]): −5.87 (2.92)*
rpart, Hg^0 dose-response, WRAVMA - Pegs Non Dom (children [5]; [19]): −.33 (.05)*
Beta (SE), Hg^0 dose-response, WRAVMA - Pegs Non Dom (children [5]; [20]): −5.34 (2.72)
rpart, Hg^0 dose-response, WRAVMA - Pegs Non Dom (children [5]; [20]): −.32 (.06)
Beta (SE), Hg^0 dose-response, WRAVMA - Pegs Non Dom (children [5]; [21]): .41 (1.49)
rpart, Hg^0 dose-response, WRAVMA - Pegs Non Dom (children [5]; [21]): .03 (.27)
Beta (SE), Hg^0 dose-response, WRAVMA - Pegs Non Dom (children [5]; CPOX WT, Year 7, maximum Hg^0): .79 (1.44)
rpart, Hg^0 dose-response, WRAVMA - Pegs Non Dom (children [5]; CPOX WT, Year 7, maximum Hg^0): .06 (.58)
Beta (SE), Hg^0 dose-response, Finger Tapping - Dominant (children [6]; [19]): −4.03 (1.76)*
rpart, Hg^0 dose-response, Finger Tapping - Dominant (children [6]; [19]): −.37 (.03)*
Beta (SE), Hg^0 dose-response, Finger Tapping - Dominant (children [6]; [20]): −3.46 (1.65)*
rpart, Hg^0 dose-response, Finger Tapping - Dominant (children [6]; [20]): −.34 (.04)*
Beta (SE), Hg^0 dose-response, Finger Tapping - Dominant (children [6]; [22]): −3.25 (1.53)*
rpart, Hg^0 dose-response, Finger Tapping - Dominant (children [6]; [22]): −.32 (.04)*
Beta (SE), Hg^0 dose-response, Finger Tapping - Dominant (children [6]; [21]): 1.59 (1.22)
rpart, Hg^0 dose-response, Finger Tapping - Dominant (children [6]; [21]): .15 (.20)
Beta (SE), Hg^0 dose-response, Finger Tapping - Dominant (children [6]; CPOX WT, Year 7, maximum Hg^0): 2.59
rpart, Hg^0 dose-response, Finger Tapping - Dominant (children [6]; CPOX WT, Year 7, maximum Hg^0): .25
Beta (SE), Hg^0 dose-response, Finger Tapping - Dominant (children [6]; [23]): 1.21 (.91)
rpart, Hg^0 dose-response, Finger Tapping - Dominant (children [6]; [23]): .13 (.19)
Beta (SE), Hg^0 dose-response, Finger Tapping - Non Dom (children [7]; [19]): −7.24 (1.67)*
rpart, Hg^0 dose-response, Finger Tapping - Non Dom (children [7]; [19]): −.60 (.0001)*
rpart, Hg^0 dose-response, Finger Tapping - Non Dom (children [7]; [20]): −.52 (.001*)
Beta (SE), Hg^0 dose-response, Finger Tapping - Non Dom (children [7]; [21]): 1.07 (1.27)
rpart, Hg^0 dose-response, Finger Tapping - Non Dom (children [7]; [21]): .10 (.40)
Beta (SE), Hg^0 dose-response, Finger Tapping - Non Dom (children [7]; CPOX WT, Year 7, maximum Hg^0): 2.14 (1.21)
rpart, Hg^0 dose-response, Finger Tapping - Non Dom (children [7]; CPOX WT, Year 7, maximum Hg^0): 20 (.08)
Beta (SE), main effect Hg (ln), WAIS-III - Symbol Search (children [8]; Year 7, cumulative Hg): −3.48 (1.54)*
rpart, main effect Hg (ln), WAIS-III - Symbol Search (children [8]; Year 7, cumulative Hg): −.20 (.03)*
Beta (SE), main effect Hg (ln), WAIS-III - Symbol Search (children [8]; Year 7, maximum Hg): −2.91 (1.49)*
rpart, main effect Hg (ln), WAIS-III - Symbol Search (children [8]; Year 7, maximum Hg): −.18 (.05)*
Beta (SE), main effect Hg (ln), WMS-III - Visual Reproduction - Immediate (children [9]; Year 7, cumulative Hg): −1.66 (.83)*
rpart, main effect Hg (ln), WMS-III - Visual Reproduction - Immediate (children [9]; Year 7, cumulative Hg): −.18 (.05)*
Beta (SE), main effect Hg (ln), WMS-III - Visual Reproduction - Immediate (children [9]; Year 7, maximum Hg): −1.63 (.80)*
rpart, main effect Hg (ln), WMS-III - Visual Reproduction - Immediate (children [9]; Year 7, maximum Hg): −.19 (.04)*
Beta (SE), main effect Hg (ln), WMS-III - Visual Reproduction - Delayed (children [10]; Year 7, cumulative Hg): −2.95 (1.24)*
rpart, main effect Hg (ln), WMS-III - Visual Reproduction - Delayed (children [10]; Year 7, cumulative Hg): −.22 (.02)*
Beta (SE), main effect Hg (ln), WMS-III - Visual Reproduction - Delayed (children [10]; Year 7, maximum Hg): −2.70 (1.19)*
rpart, main effect Hg (ln), WMS-III - Visual Reproduction - Delayed (children [10]; Year 7, maximum Hg): −.21 (.02)*
direction of significant main effect of acute Hg^0 exposure, RAVALT Trial 6 test (children [11]): improved direction
main effects of chronic Hg^0 exposure (children [12]; all girls, either measure of chronic exposure): no significant associations
cumulative Hg^0 dose-response effects on neurobehavioral test performance (children [12]; boys genotyped as CPOX wild type, Year 7): no significant cumulative Hg^0 dose-response effects
number of tests with significant dose-response relationships (impaired direction) (children [12]; boys with CPOX4 variant status, Year 7, maximum exposure): 14
number of the 23 neurobehavioral tests with significant Hg^0 dose-response effects (impaired direction) (children [12]; boys with at least one CPOX4 variant allele, Year 7, cumulative exposure): 11
dose-response relationships for chronic Hg^0 exposure (children [12]; girls, CPOX wild type or CPOX4 variant evaluated separately, maximum or cumulative measures): no significant dose-response relationships
